Measurements: ChEMBL document CHEMBL1125656, “Novel indole-2-carboxylates as ligands for the strychnine-insensitive N-methyl-D-aspartate-linked glycine receptor” (J Med Chem, 1991)

Target: Glutamate NMDA receptor
Test: Inhibition of strychnine-insensitive [3H]glycine binding to the N-methyl-D-aspartate glutamate receptor of synaptic plasma membranes(SPM) prepared from rat forebrain
Type: cell-free
Method in brief: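 Rat forebrain synaptic plasma membranes (male Sprague-Dawley, 30–45 days old), Triton X-100-washed; 0.2–0.4 mg incubated with 10 nM [3H]glycine and a range of compound concentrations in triplicate, in 50 mM Tris/acetate pH 7.4, for 10 min at 2 °C. Bound ligand separated by centrifugation (12000g, 15 min, 4 °C) or GF/B filtration, then scintillation counted. Nonspecific binding set with 100 μM glycine. Ki derived by logit-log analysis.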

Ki: 1560 nM
SMILES: COC(=O)Cc1c(C(=O)O)[nH]c2cc(Cl)ccc12
